US5556849A, “Ruthenium containing phthalocyanin photosensitizers” (priority 1991, dated 1996)

What was measured:
[1] = test system: Adherent cells (HeLa RCA. SKOV OVCAR); test: Phototoxicity (Light): 3H-thymidine incorporation in adherent cells after irradiation, with dark cytotoxicity for PI; assay type: cell-based; settings: ratio of PC50 to cytotoxic concentration 50% (no light)
Experimental: The media is removed and the cells washed three times with D-PBS. and then covered with D-PBS (200 μl ) and exposed to light from the same source used in the singlet oxygen assay.
This follows the procedure for phototoxicity except that the cells are never exposed to light. The assay is relative to a non-treated control.
(§1) Compounds according to the invention were assessed and characterised by their light absorption maxima, and their molar extinction coefficients according to conventional test procedures. Most of the compound were tested for their biological activity according to conventional test procedures in the art. The PC50 represents phototoxic concentration 50%. which is the concentration of compound when exposed to a light dose as described herein, causes a 50% reduction in cancer cell growth vs an untreated control population. The phototoxicity index. PI, is the ratio of the PC50 to the cytotoxic concentration 50%. where the growth is reduced by 50% without a light dose being given.
PC50 is determined by a relatively simple in vitro assay on a cellular level, which is generally indicative of photosensitizing activity.

[2] = Light absorption maxima and molar extinction coefficients; assay type: physicochemical; settings: in water (W)
Experimental: as §1

**Q.** Which results are given for `Nc1ccc(O)c(C(=O)O)c1.Nc1ccc(O)c(C(=O)O)c1.c1ccc2c(c1)C1=NC3=NC(=Nc4c5ccccc5c5[n]4[Ru][n]4c(c6ccccc6c4=N5)=NC2=N1)c1ccccc13` [RuPc(5AS)2]?
**A.** PI (phototoxicity index) [1]: > 10; λmax Q [2]: 635
